{"source": "paper PMC3866251", "about": "“The Sodium/Proline Transporter PutP of Helicobacter pylori” (PLoS ONE, 2013)", "system": "O=C(O)[C@@H]1CCCN1", "experiment": "cells, lysate or membranes", "conditions": "50 mM NaCl (Na+ coupling ion); labelled compound", "data": [{"substance": "HpPutP (Helicobacter pylori P12)", "values": [{"measurement": "Km", "result": "1.8 ± 0.2", "unit": "µM"}]}]}
